GRP78 ERSR act = induces the endoplasmic reticulum stress response in human glioma cells; U87-MG GRP78 promoter luciferase reporter, 16 h; Potency, µM, actives largely listed as activators; actives 0.02% (n = 420,000); further: series mostly up to about 76 µM; nearly all actives have a fitted effect of over 35% in size
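ERSR induction read as luciferase luminescence (Bright-Glo, 10 min at room temperature) in stably transfected human U87-MG glioma cells exposed to compounds for 16 h, using GRP78 as sensor.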
PTAP TSG101 blk = blocks PTAP/TSG101 interaction to inhibit HIV-1 budding; Q99816; Fluorescence polarization, FITC-PTAP peptide / Tsg101 binding; Potency, µM (titrated, usually from 115 µM), actives largely listed as inhibitors; 340,000 tested, under 10 active; AID 493005; active means well fitted inhibition curve with a large enough effect in the main read-out, with a control signal flat, not every such curve was filed as active; inconclusive means small, poorly fitted or top-dose-only effect, or effect the other way, or a change in a side signal; inactive means no such curve, though single readings can be large or run the other way
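Fluorescence anisotropy tracks displacement of a FITC-tagged PTAP peptide (50 nM) from the Tsg101 binding domain (10 uM), following a 20 min room-temperature incubation at pH 7.5.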
miR-21 FLuc = miR-21 reporter, rising signal | 340,000 tested, under 10 active | AID 2288 | HeLa miR-21 FLuc reporter, luciferase, 48 h | Potency, µM (titrated, usually from 38.3 µM); active = well fitted rising curve with a large enough effect; inconclusive = small, poorly fitted or top-dose-only effect; inactive = no such curve, though single readings can be large or run the other way;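 further: miR-21 action dims this reporter so a rising signal means less miR-21 action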
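Compounds were titrated across several concentrations (up to approximately 40 uM) and incubated 48 hours with HeLa miR-21-FLuc reporter cells (miR-21 target sequence downstream of FLuc, endogenous miR-21). Readout was firefly luciferase luminescence after lytic detection reagent.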
Nrf2 ARE act = Nrf2 pathway activation; AREc32 ARE-luciferase reporter (MCF7-derived line), luminescence, 24 h; actives 0.31% (n = 410,000); Potency, µM (series often up to 46.1 µM), actives largely listed as activators; further: nearly all actives have a fitted effect of over 65% in size
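Luminescent ARE reporter assay in AREc32_Fluc cells: overnight plating at 37 deg C, 24 hr compound incubation, Steady-Glo added, 30 min RT before reading.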
A549 tox-1 = A549 cytotoxicity, counter-screen for Nrf2 inhibitors | Potency, µM (highest dose often 46 µM), actives largely listed as inhibitors | actives 0.16% (n = 390,000) | A549 ARE-Fluc cells, CellTiter-Fluor viability, 18-24 h
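A549 ARE_Fluc cells in 5% FBS OPTI-MEM were exposed to compounds in concentration-response for 18-24 h at 37 deg C. Viability was read by CellTiter-Fluor fluorescence (Ex 405/Em 525) after 30 min, before the luciferase read.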
Nrf2 inh = inhibitors of Nrf2 signaling. A549 ARE-Fluc reporter, luciferase luminescence, 18-24 h. Potency, µM (series often up to 46 µM), usual class: inhibitors. actives 2.1% (n = 360,000). AID 504444; further: nearly all actives have a fitted effect of over 60% in size
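A549 ARE_Fluc cells (5000/well, 5% FBS OPTI-MEM) pre-incubated 2 h, then treated with compounds 18-24 h at 37C/5% CO2 in concentration-response. CellTiter-Fluor viability read first; BugLite luciferase luminescence after 15 min at room temperature gives Nrf2 activity.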
FLuc enzyme inh = firefly luciferase inhibition, Nrf2 hit validation. shares compounds with Nrf2 inh. Potency, µM (series often up to 57.5 µM), usual class: inhibitors. purified firefly luciferase, luminescence inhibition. actives 4% (n = 1,400); further: nearly all actives have a fitted effect of over 65% in size
A549 tox-2 = toxic to A549 ARE-Fluc cells in Nrf2 counterscreen; actives 2% (n = 1,400); Potency, µM (series often up to 46.1 µM), hits mostly inhibitors; shares compounds with Nrf2 inh; A549 ARE-Fluc cells, cytotoxicity counterscreen;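 further: cells exposed to compounds for 18 to 24 hours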
Nrf2 ARE inh = confirmation of Nrf2 inhibitors in A549 ARE reporter cells; Potency, µM (highest dose often 46.1 µM), most hits filed as inhibitors; shares compounds with Nrf2 inh; A549 ARE-firefly luciferase reporter, luminescence; AID 720524; actives 74% (n = 1,400); further: nearly all actives have a fitted effect of over 65% in size
Numbers stand for hits; i = inactive; ? = inconclusive; nt = no result; [ ] = dose if it differs, or a comment. Shown are actives, neighbours in structure and some others; about 2.1% of the full set was active somewhere. Unless noted, the call rests on the fitted dose curve; in most records, active means well fitted curve in the direction sought with a large enough effect; inconclusive means small, poorly fitted or top-dose-only effect, or another doubt; inactive means no such curve, though single readings can be large; an effect the other way counts as inactive or inconclusive.

SMILES	GRP78 ERSR act	PTAP TSG101 blk	miR-21 FLuc	Nrf2 ARE act	A549 tox-1	Nrf2 inh	FLuc enzyme inh	A549 tox-2	Nrf2 ARE inh
CCOC(=O)c1c(Nc2ccc(Cl)cc2)sc(/C=C2\C=Nc3ccccc32)c1O	i	i	i	i	i[1.84 µM]	1.46µM	i	?	4.11µM
O=C1Cc2c([nH]c3ccc([N+](=O)[O-])cc23)-c2ccccc2N1	i	i	nt	i	?	2.31µM	i	?	2.31µM
CC(C)n1cc(/C=C/c2cc[n+](C)cc2)c2ccccc21	i	?	?	i[9.22 µM]	?	2.31µM	i	?	6.51µM
C=CCn1cc(/C=C/c2cc[n+](C)cc2)c2ccccc21	i	?	?	i	?	2.31µM	i	i	1.84µM
C=CCn1c(C)c(/C=C/c2cc[n+](C)cc2)c2ccccc21	i	?	?	i	i	?	nt	nt	nt
CCn1cc(/C=C/c2cc[n+](C)cc2)c2ccccc21	i	?	?	i	i	1.84µM	i	?	1.84µM
Cc1ccccc1/C=C/c1cc[n+](C)cc1	i	i	i	i	i	1.3µM	i	i	23.1µM
COc1ccc(-c2nc3ccc(NC(C)=O)cc3c(=O)n2Cc2ccccc2)cc1COc1ccc(NC(C)=O)cc1	nt	nt	nt	nt	i	i	nt	nt	nt
O=C(c1cnc(N2CCN(c3ccccn3)CC2)c2ccccc12)N1CCN(c2cccc(Cl)c2)CC1	i	i	i	i	i	5.8µM	i	i	8.2µM
O=[N+]([O-])c1ccccc1S(=O)(=O)N1CCN(c2nc(-c3cccs3)nc3ccccc23)CC1	i	nt	nt	nt	i	i	nt	nt	nt
CN(Cc1ccccc1)c1ccc(C=O)cc1	i	nt	nt	nt	nt	nt	nt	nt	nt
COC(=O)c1ccc2c(c1O)C(=O)c1ccccc1C2=O	i	i	i	i	?	3.26µM	10.7µM	3.66µM	3.66µM
CC(Nc1ncnc2sccc12)c1ccccc1 (stereo not given)	i	i	i	i	i	1.64µM	i	i	1.46µM
CN=C1C=CC(=C(c2ccc(N(C)C)cc2)c2ccc(N(C)C)cc2)C=C1	i	nt	nt	nt	nt	nt	nt	nt	nt
COc1cc(C(=O)O[C@H]2C/C(C)=C/CC/C(C)=C/[C@@H](O)C2C(C)C)ccc1O (stereo not given in full)	i	nt	nt	nt	nt	nt	nt	nt	nt
CC(C(=O)Nc1ccc(O)cc1)c1cccc(C(=O)c2ccccc2)c1 (stereo not given)	i	i	i	i	i	9.2µM	i	i	?
O=C(COC(=O)c1ccccc1OCc1cccc(Br)c1)Nc1ccc(Br)cc1	i	nt	nt	nt	nt	nt	nt	nt	nt
O=C(Nc1ccc2oc(-c3cccnc3)nc2c1)c1ccc(-c2cccc(OC(F)(F)F)c2)o1	i	nt	i	i	i	1.46µM	i	i	1.84µM
Cc1c(Cl)cccc1-c1ccc(C(=O)Nc2ccc3oc(-c4cccnc4)nc3c2)o1	i	nt	i	i	i	?	nt	nt	nt
CSCCC(NC(=O)CCC(=O)OCC(=O)[C@@]1(O)CCC2[C@@H]3CCC4=CC(=O)C=C[C@]4(C)C3[C@@H](O)C[C@@]21C)C(=O)O (stereo not given in full)	i	i	i	i	i	0.206µM	i	i	0.058µM
CC(C)CC(NC(=O)CCC(=O)OCC(=O)[C@@]1(O)CCC2[C@@H]3CCC4=CC(=O)C=C[C@]4(C)C3[C@@H](O)C[C@@]21C)C(=O)O (stereo not given in full)	i	i	i	i	i	?	nt	nt	nt
C[C@]12C=CC(=O)C=C1CC[C@@H]1C2C(O)C[C@@]2(C)C1CC[C@]2(O)C(=O)COC(=O)CCC(=O)NC(CC(=O)O)C(=O)O (stereo not given in full)	i	i	i	i	i	0.103µM	i	i	0.259µM
S=C(NCCCc1cnc[nH]1)NCCCN(Cc1ccc(Cl)cc1)c1cc(-c2ccccc2)ccn1	i	nt	nt	nt	i	i	nt	nt	nt
O=C(NCCc1nnc2n1CCN(Cc1ccc(F)cc1)CC2)c1ccc(F)cc1	i	nt	nt	nt	nt	nt	nt	nt	nt
COc1ccccc1NC(C)C(=O)c1c[nH]c2ccccc12 (stereo not given)	i	nt	nt	nt	nt	nt	nt	nt	nt
SMILES	GRP78 ERSR act	PTAP TSG101 blk	miR-21 FLuc	Nrf2 ARE act	A549 tox-1	Nrf2 inh	FLuc enzyme inh	A549 tox-2	Nrf2 ARE inh
C=CC(=O)Nc1ccc(Nc2nc(NC3CCC(N(C)C)CC3)nc3c2ncn3C(C)C)cc1 (stereo not given)	i	i	nt	i	18.4µM	2.59µM	i	8.2µM	2.59µM
CC(C)[C@H](CO)Nc1nc(Nc2ccc(C(=O)O)c(Cl)c2)c2ncn(C(C)C)c2n1	i	nt	nt	nt	nt	nt	nt	nt	nt
CCCCN(C)C(=O)C1CCCN(c2ncnc3onc(C)c23)C1 (stereo not given)	i	nt	?	i	i	9.2µM	i	i	2.91µM
COC(=O)c1c(C)oc2ccc(N(C(=O)c3ccncc3)S(=O)(=O)c3c(C)cc(C)cc3C)cc12	i	nt	i	i	i	4.11µM	i	i	5.8µM
COC(=O)c1c(C)oc2ccc(N(C(=O)Oc3ccccc3)S(=O)(=O)c3ccc(Cl)c([N+](=O)[O-])c3)cc12	i	i	i	i	i	i	nt	nt	nt
CCc1ccc(S(=O)(=O)N(C(=O)Oc2ccccc2)c2ccc3oc(C)c(C(=O)OC)c3c2)cc1	i	nt	i	i	i	3.66µM	i	i	6.51µM
Cc1ccc(S(=O)(=O)N(C(=O)c2ccncc2)c2ccc3oc4c(c3c2)CCCC4)cc1[N+](=O)[O-]	i	i	i	i	i	?	nt	nt	nt
CCOC(=O)c1c(C)oc2ccc(N(C(=O)c3ccncc3)S(=O)(=O)c3ccc(F)cc3C)cc12	i	nt	i	i	i	?	nt	nt	nt
COC(=O)c1c(C)oc2ccc(N(C(=O)c3ccncc3)S(=O)(=O)c3cc(C)c(C)cc3C)cc12	i	nt	i	i	i	9.2µM	i	i	10.3µM
CC1(C)CC2CC(C)(CN2S(=O)(=O)c2ccc(C(=O)Nc3cccc(S(=O)(=O)N4CCOCC4)c3)cc2)C1 (stereo not given)	i	i	i	i	i	2.31µM	i	i	2.06µM
CC1(C)CC2CC(C)(CN2S(=O)(=O)c2ccc(C(=O)Nc3cc(S(=O)(=O)N4CCOCC4)ccc3Cl)cc2)C1 (stereo not given)	i	i	i	i	i	?	nt	nt	nt
C(=C\c1ccnc2ccccc12)/c1ccc(-[n+]2cc[n+](-c3ccc(/C=C/c4ccnc5ccccc45)cc3)cc2)cc1	i	nt	nt	nt	nt	nt	nt	nt	nt

Source: PubChem BioAssay
